The entries are a selection whose mix differs from that of the whole data set. Some of these compounds have results that are not shown, active ones among them. Activity calls are given as the source filed them.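 Rule for the calls: active = activation above the screen-wide mean activation plus 3 SD (cut at about 130% in these data); inactive = the rest.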
Assay: potentiators of IFN-gamma driven STAT1 reporter – cell-based, HTS, luciferase reporter, primary screen (AID 932);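 note: raw ratio to IFN-gamma control signal so 100% means no change and 0% no light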
Conditions: NIH 3T3 STAT1-luciferase reporter, luminescence, at 5.5 µM, stronger effect = higher value, 100% = IFN-gamma alone, no compound

| SMILES | activation (% of control) |
| --- | --- |
| CN(C)C1CCCC1OC(=O)C(O)(c1ccccc1)c1ccccc1 (centres undefined) | inactive: 96.4% |
| Cc1ccccc1C(=O)NCC1(N2CCCCC2)CCCCC1 | inactive: 99.2% |
| C=CCN1CCN(CCOC(=O)C(O)(c2ccccc2)c2ccccc2)CC1 | inactive: 96.8% |
| CCN1CCCC(OC(=O)C2(O)c3ccccc3C=Cc3ccccc32)C1 (centres undefined) | inactive: 104% |
| O=C(NCC1(N2CCCCC2)CCCCC1)c1cc([N+](=O)[O-])ccc1Cl | inactive: 94.3% |
| CC(C)N1C(=O)CC2(CCN(CCOC(=O)C(O)(c3ccccc3)c3ccccc3)CC2)C1=O | inactive: 99.4% |
| O=C(OC1CN2CCC1CC2)C(CO)(c1ccccc1)c1ccccc1 (centres undefined) | inactive: 105% |
| CN(C)c1cccc(C(=O)NCC2(N(C)C)CCCCC2)c1 | inactive: 101% |
| COc1cccc(C(=O)NCC2(N3CCCCC3)CCCCC2)c1 | inactive: 99.2% |
